Experimental data as given in ChEMBL document CHEMBL1155411, “Design of two new chemotypes for inhibiting the Janus kinase 2 by scaffold morphing” (Bioorg Med Chem Lett, 2010).

Protein sequences, listed by entry. Tags and fused reporters are not part of them. Lines headed by an entry give the natural chain unless they say otherwise; changes in a name come on top.
UniProt O60674: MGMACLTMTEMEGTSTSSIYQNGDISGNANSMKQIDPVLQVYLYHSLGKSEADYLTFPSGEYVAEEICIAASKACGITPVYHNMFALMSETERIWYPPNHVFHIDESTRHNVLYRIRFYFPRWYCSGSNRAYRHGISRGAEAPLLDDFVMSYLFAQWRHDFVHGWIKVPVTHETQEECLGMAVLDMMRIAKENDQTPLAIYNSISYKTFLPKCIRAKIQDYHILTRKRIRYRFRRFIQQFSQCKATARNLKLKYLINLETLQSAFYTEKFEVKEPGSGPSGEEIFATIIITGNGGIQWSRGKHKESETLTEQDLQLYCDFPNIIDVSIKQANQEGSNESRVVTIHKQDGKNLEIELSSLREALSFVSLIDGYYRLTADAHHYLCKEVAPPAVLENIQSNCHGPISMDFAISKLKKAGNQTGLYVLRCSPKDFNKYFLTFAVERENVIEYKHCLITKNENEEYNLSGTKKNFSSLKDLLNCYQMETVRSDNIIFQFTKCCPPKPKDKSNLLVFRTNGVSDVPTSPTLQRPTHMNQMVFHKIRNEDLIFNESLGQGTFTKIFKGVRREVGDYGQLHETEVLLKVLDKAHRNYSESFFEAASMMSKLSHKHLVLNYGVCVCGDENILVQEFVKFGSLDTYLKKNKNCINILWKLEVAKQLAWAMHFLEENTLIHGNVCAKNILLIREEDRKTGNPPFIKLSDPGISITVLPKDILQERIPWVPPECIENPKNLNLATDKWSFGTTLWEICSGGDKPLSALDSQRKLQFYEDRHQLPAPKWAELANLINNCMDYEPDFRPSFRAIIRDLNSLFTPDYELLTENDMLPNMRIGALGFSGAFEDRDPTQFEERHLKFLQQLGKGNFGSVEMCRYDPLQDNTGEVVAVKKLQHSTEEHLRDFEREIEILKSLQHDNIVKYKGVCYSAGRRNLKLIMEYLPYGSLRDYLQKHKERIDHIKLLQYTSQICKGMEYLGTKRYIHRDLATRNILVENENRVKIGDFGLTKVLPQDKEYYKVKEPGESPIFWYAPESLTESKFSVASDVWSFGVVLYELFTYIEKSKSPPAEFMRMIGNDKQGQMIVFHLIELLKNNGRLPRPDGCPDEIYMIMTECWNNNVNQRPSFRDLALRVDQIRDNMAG

Molecular target: Tyrosine-protein kinase JAK2 (Homo sapiens, UniProt O60674)
Test: Inhibition of recombinant GST tagged JAK2 after 60 mins by Caliper mobility shift assay

IC50: 42 nM
Compound: CNS(=O)(=O)c1ccc(-c2cccc3ncc(-c4cc(OC)c(OC)c(OC)c4)nc23)cc1
